# scFv variants of Ab-14 (heavy chain) against a SARS-CoV-2 spike peptide

The measurements come from Engelhart et al. 2022 (doi:10.1038/s41597-022-01779-4) through the FLAb antibody collection.

Target: peptide PDVDLGDISGINAS, taken from heptad repeat 2 (HR2) of SARS-CoV-2 spike.

Each scFv is VH, a (GGGGS)3 linker, VL, as in the parent Ab-14, and differs from it in the CDRs of the heavy chain only.
VH: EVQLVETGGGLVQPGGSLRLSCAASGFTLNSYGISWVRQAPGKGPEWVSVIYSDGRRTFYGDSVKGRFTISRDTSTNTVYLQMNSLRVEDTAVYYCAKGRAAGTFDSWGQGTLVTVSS
VL: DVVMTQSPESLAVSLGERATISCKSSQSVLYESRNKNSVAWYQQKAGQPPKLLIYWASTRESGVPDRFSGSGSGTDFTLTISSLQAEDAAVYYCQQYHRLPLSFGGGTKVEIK

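The parent was found by panning a naive human phage display library on the peptide. Variants in AAYL49 differ from the parent at up to three CDR positions; double and triple changes were sampled at random. AlphaSeq pools MATa yeast showing the antibodies with MATalpha yeast showing the peptide. Binding brings cells together so that they mate, and sequencing counts the barcode pairs among the diploids. A regression on co-assayed BCL2-family reference pairs converts the normalised counts of each replicate to an apparent Kd. There are three technical replicates.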

The parent's heavy chain CDRs are GFTLNSYGIS, VIYSDGRRTFYGDSVK, GRAAGTFDS; each variant's own CDRs replace them letter for letter.
Scale: log10 of Kd in nM, estimated from mating counts; low values are strong binders.
Averages over replicates are reported, and they cover detected replicates only.
A pair that was not seen in that replicate is written "ND"; this usually means weak binding, but a binder can also be missed.

{"CDR-H1": "PFTLNSYGIS", "CDR-H2": "VIYSDGRRTFTGDSVK", "CDR-H3": "GRAAGTFDS", "log10 Kd, replicates": "ND 2.51 4.52", "mean, log10 nM": "3.51", "signal with controls": "0/9"}
{"CDR-H1": "GFTLNSGGIS", "CDR-H2": "VIYSDGRRTWYGDSRK", "CDR-H3": "GRAAGTFDS", "log10 Kd, replicates": "ND 3.44 ND", "mean, log10 nM": "3.44", "signal with controls": "5/9 (4.21)"}
{"CDR-H1": "GFTLNSKGIS", "CDR-H2": "VQYSDGRRTFYGDKVK", "CDR-H3": "GRAAGTFDS", "log10 Kd, replicates": "ND ND 3.59", "mean, log10 nM": "3.59", "signal with controls": "4/9 (4.73)"}
{"CDR-H1": "GFDLNSYGIS", "CDR-H2": "VSYSDGRRTFYGDSVK", "CDR-H3": "GRAAGTFDS", "log10 Kd, replicates": "ND ND ND", "mean, log10 nM": "ND", "signal with controls": "0/9"}
{"CDR-H1": "GFTLWSYGIS", "CDR-H2": "VIYSDGMRIFYGDSVK", "CDR-H3": "GRAAGTFDS", "log10 Kd, replicates": "ND ND 3.27", "mean, log10 nM": "3.27", "signal with controls": "4/9 (4.16)"}
{"CDR-H1": "GFTLNSYGDG", "CDR-H2": "VIYSDSRRTFYGDSVK", "CDR-H3": "GRAAGTFDS", "log10 Kd, replicates": "ND ND ND", "mean, log10 nM": "ND", "signal with controls": "0/9"}
{"CDR-H1": "GFTLNSYGIS", "CDR-H2": "VIYTPGRRTFYGDSVK", "CDR-H3": "GRAAGTFDS", "log10 Kd, replicates": "5.06 4.91 ND", "mean, log10 nM": "4.98", "signal with controls": "1/9 (4.09)"}
{"CDR-H1": "GFTLNSYGIS", "CDR-H2": "GIVSDGRRTFYGDSVK", "CDR-H3": "GRAYGTFDS", "log10 Kd, replicates": "ND ND ND", "mean, log10 nM": "ND", "signal with controls": "0/9"}
{"CDR-H1": "GFTLNSYGIS", "CDR-H2": "VIYSQGRRTFYGDSVK", "CDR-H3": "GRAAGTDTS", "log10 Kd, replicates": "ND ND 4.34", "mean, log10 nM": "4.34", "signal with controls": "0/9"}
{"CDR-H1": "GFTLNSYGIS", "CDR-H2": "VIKSDGRRTFYGDSVK", "CDR-H3": "GRAAGTKDS", "log10 Kd, replicates": "ND ND ND", "mean, log10 nM": "ND", "signal with controls": "3/9 (3.67)"}
{"CDR-H1": "GFTLNSWGIS", "CDR-H2": "VIYSDGRRDFYGWSVK", "CDR-H3": "GRAAGTFDS", "log10 Kd, replicates": "ND ND 5.16", "mean, log10 nM": "5.16", "signal with controls": "1/9 (3.14)"}
{"CDR-H1": "GFGLNSYGIS", "CDR-H2": "VIYSDYRRTFYGDSVK", "CDR-H3": "GRAAGTFDS", "log10 Kd, replicates": "5.67 ND ND", "mean, log10 nM": "5.67", "signal with controls": "1/9 (3.38)"}
{"CDR-H1": "GFTLNIYGIT", "CDR-H2": "VIYSDGRRGFYGDSVK", "CDR-H3": "GRAAGTFDS", "log10 Kd, replicates": "ND ND ND", "mean, log10 nM": "ND", "signal with controls": "0/9"}
{"CDR-H1": "GFTLNSYWIS", "CDR-H2": "VIYSDGRRQFYGDSVK", "CDR-H3": "GRAAGTFDM", "log10 Kd, replicates": "ND ND ND", "mean, log10 nM": "ND", "signal with controls": "3/9 (4.28)"}
{"CDR-H1": "GDTLNSYGIS", "CDR-H2": "VIYSDGRRTFYDDSVY", "CDR-H3": "GRAAGTFDS", "log10 Kd, replicates": "1.89 2.07 1.99", "mean, log10 nM": "1.98", "signal with controls": "1/9 (3.29)"}
{"CDR-H1": "GLTLNSYGIS", "CDR-H2": "VIYSDGRGTFYGDWVK", "CDR-H3": "GRAAGTFDS", "log10 Kd, replicates": "ND ND ND", "mean, log10 nM": "ND", "signal with controls": "0/9"}
{"CDR-H1": "GTTLNAYGIS", "CDR-H2": "VIYSDGRRTIYGDSVK", "CDR-H3": "GRAAGTFDS", "log10 Kd, replicates": "ND ND ND", "mean, log10 nM": "ND", "signal with controls": "0/9"}
{"CDR-H1": "GFTLNSYGIS", "CDR-H2": "YIYSDGRATFYGDSVK", "CDR-H3": "GRAAGTCDS", "log10 Kd, replicates": "ND ND ND", "mean, log10 nM": "ND", "signal with controls": "0/9"}
{"CDR-H1": "GFTLDSQGIS", "CDR-H2": "VIYSDCRRTFYGDSVK", "CDR-H3": "GRAAGTFDS", "log10 Kd, replicates": "ND 3.81 ND", "mean, log10 nM": "3.81", "signal with controls": "0/9"}
{"CDR-H1": "GFTLNSYGIS", "CDR-H2": "VITSDGRRWFYGDSVK", "CDR-H3": "GLAAGTFDS", "log10 Kd, replicates": "ND ND ND", "mean, log10 nM": "ND", "signal with controls": "0/9"}
{"CDR-H1": "GFTVNSYGIS", "CDR-H2": "VIYSDGRRTFYGDSVK", "CDR-H3": "GRIWGTFDS", "log10 Kd, replicates": "ND ND ND", "mean, log10 nM": "ND", "signal with controls": "3/9 (4.25)"}
{"CDR-H1": "MFTLNSYGNS", "CDR-H2": "VIYSDGRRVFYGDSVK", "CDR-H3": "GRAAGTFDS", "log10 Kd, replicates": "4.70 ND ND", "mean, log10 nM": "4.70", "signal with controls": "0/9"}
{"CDR-H1": "GFTLNSYGIV", "CDR-H2": "VIYSDGRRTFYGDSVV", "CDR-H3": "GRAAGTFWS", "log10 Kd, replicates": "ND ND ND", "mean, log10 nM": "ND", "signal with controls": "1/9 (3.29)"}
{"CDR-H1": "GFTLNSDGIS", "CDR-H2": "VIYSDGRRTFYGDSVK", "CDR-H3": "GRAMGVFDS", "log10 Kd, replicates": "ND ND ND", "mean, log10 nM": "ND", "signal with controls": "0/9"}
{"CDR-H1": "GFTLNSYGIS", "CDR-H2": "VILSDGRRTFYGKSVK", "CDR-H3": "GRAAGTFDV", "log10 Kd, replicates": "ND ND ND", "mean, log10 nM": "ND", "signal with controls": "0/9"}
{"CDR-H1": "GFTLNSYGIQ", "CDR-H2": "VDYSDGRRTFYGDSVK", "CDR-H3": "GRAAVTFDS", "log10 Kd, replicates": "ND ND ND", "mean, log10 nM": "ND", "signal with controls": "0/9"}
{"CDR-H1": "GMTLNSYGIS", "CDR-H2": "VIYSDGRRTFYGDSVK", "CDR-H3": "GRAPGTFDA", "log10 Kd, replicates": "2.88 2.82 ND", "mean, log10 nM": "2.85", "signal with controls": "0/9"}

A selection of 2 entries from above:

{"CDR-H1": "GTTLNAYGIS", "CDR-H2": "VIYSDGRRTIYGDSVK", "CDR-H3": "GRAAGTFDS", "log10 Kd, replicates": "ND ND ND", "mean, log10 nM": "ND", "signal with controls": "0/9"}
{"CDR-H1": "GFTLNSDGIS", "CDR-H2": "VIYSDGRRTFYGDSVK", "CDR-H3": "GRAMGVFDS", "log10 Kd, replicates": "ND ND ND", "mean, log10 nM": "ND", "signal with controls": "0/9"}

Three control strains display no target. For library AAYL49, 15% of the pairings with them gave a signal, with a median of 4.06 and one signal in twenty below 2.83, so weak values seen in few replicates may be background. The control count says in how many pairings with the empty strains this scFv gave a signal, with their mean in brackets.